Patent publication US11406640B2, “JAK1 pathway inhibitors for the treatment of chronic lung allograft dysfunction” (Incyte Corporation, priority 2019, dated 2022)

Target: human JAK1 (Homo sapiens, UniProt P23458)
Test: In vitro JAK kinase assay (Example A), JAK1
Format: biochemical
Details: 1 mM ATP
From the text: In some embodiments, the JAK1 pathway inhibitor is a compound of Table 2, or a pharmaceutically acceptable salt thereof.

## CN(C)Cc1cc(F)cc(OC2CCN(CC(CC#N)n3cc(-c4ncnc5[nH]ccc45)cn3)CC2)c1 (single isomer, unassigned) [Compound 14, 4-(4-{3-[(dimethylamino)methyl]-5-fluorophenoxy}piperidin-1-yl)-3-[4-(7H-pyrrolo[2,3-d]pyrimidin-4-yl)-1H-pyrazol-1-yl]butanenitrile]
  IC50: < 10 nM
